# Source: the NIST ThermoML archive (doi:10.1021/je020196d)
# Columns and labels:
# [1] = refractive index (Na D-line) (dimensionless); settings: 293.15 K; 101.33 kPa; Liquid; Standard Abbe refractometry
# [2] = 293.15 K; 101.33 kPa; Liquid
smiles,measurement,setting,value
OCCOCCOCCOCCO [tetraethylene glycol],refractive index,[1],1.4571 ± 0.0007
same,mass density,[2],1125.6 ± 5 kg/m3

# Numbers after ± are expanded uncertainties.
